Source: patent US7259166B2, “Substituted-cycloalkyl and oxygenated-cycloalkyl glucokinase activators” (Hoffmann-La Roche Inc., priority 2002, dated 2007)

Tested on: C57BL/6J mice
Assay: Glucokinase activator in vivo screen (blood glucose after oral dosing)
Settings: oral gavage 50 mg/kg, two hour fast, blood glucose at 1, 2, 4 and 6 hours post dose
Protocol: Glucokinase Activator In Vivo Screen Protocol
C57BL/6J mice are orally dosed via gavage with Glucokinase (GK) activator at 50 mg/kg body weight following a two hour fasting period. Blood glucose determinations are made five times during the six hour post-dose study period.
Mice (n=6) are weighed and fasted for a two hour period prior to oral treatment.

Row | SMILES | glucokinase activator in vivo activity when administered orally (decrease in blood glucose compared to vehicle)
1 | CS(=O)(=O)c1ccc([C@@H](C[C@H]2CCC(=O)C2)C(=O)Nc2cnccn2)cc1Cl [Example 48, 2(R)-(3-Chloro-4-methanesulfonyl-phenyl)-3-((R)-3-oxo-cyclopentyl)-N-pyrazin-2-yl-propionamide] | excellent glucokinase activator in vivo activity
2 | CS(=O)(=O)c1ccc([C@@H](CC2CCC(=O)C2)C(=O)Nc2cnccn2)cc1Cl (stereo partly drawn) [Example 46, 2(R)-(3-Chloro-4-methanesulfonyl-phenyl)-3-(3-oxo-cyclopentyl)-N-pyrazin-2-yl-propionamide] | excellent glucokinase activator in vivo activity
